These results are taken from ChEMBL document CHEMBL1821552, “Synthesis and in vitro evaluation of xylene linked carbamoyl bis-pyridinium monooximes as reactivators of organophosphorus (OP) inhibited electric eel acetylcholinesterase (AChE)” (2011).

Sequences of proteins named here, by UniProt entry; tags and fusion partners are left off. A change or cut given only in a name is not applied to a line headed by its entry.
UniProt O42275: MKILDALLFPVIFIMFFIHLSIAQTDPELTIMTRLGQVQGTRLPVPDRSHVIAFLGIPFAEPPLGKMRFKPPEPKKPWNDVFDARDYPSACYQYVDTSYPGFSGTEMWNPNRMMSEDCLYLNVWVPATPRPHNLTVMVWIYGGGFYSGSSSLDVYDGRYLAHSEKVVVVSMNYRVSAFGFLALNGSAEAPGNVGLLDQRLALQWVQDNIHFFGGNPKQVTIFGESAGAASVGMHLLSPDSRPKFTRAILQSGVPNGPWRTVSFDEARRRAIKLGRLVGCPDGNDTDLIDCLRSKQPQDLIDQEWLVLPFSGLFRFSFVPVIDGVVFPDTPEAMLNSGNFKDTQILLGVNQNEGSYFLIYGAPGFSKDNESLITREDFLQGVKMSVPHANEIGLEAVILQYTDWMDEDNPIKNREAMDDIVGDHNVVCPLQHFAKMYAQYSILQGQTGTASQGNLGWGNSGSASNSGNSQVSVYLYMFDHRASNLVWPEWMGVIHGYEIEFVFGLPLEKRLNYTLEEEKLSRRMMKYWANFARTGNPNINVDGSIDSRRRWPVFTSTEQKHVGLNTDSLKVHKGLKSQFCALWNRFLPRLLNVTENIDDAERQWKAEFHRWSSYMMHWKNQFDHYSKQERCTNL

The source made the active and inactive calls. The rule behind the calls is not given here.

In test [1] the target is Acetylcholinesterase (Electrophorus electricus) (UniProt O42275). The experiment in a line: Reactivation of VX-inhibited electric eel AChE activity at 0.001 M and pH 8 after 10 mins by Ellman's method relative to control. More on the design: scale not given: the % may be the effect or the level left.
For test [2] the target is unchanged. The experiment in a line: Reactivation of sarin-inhibited electric eel AChE activity at 0.001 M and pH 8 after 10 mins by Ellman's method relative to control. The arrangement: scale not given: the % may be the effect or the level left.
The target is the same in test [3]. The experiment in a line: Reactivation of sarin-inhibited electric eel AChE activity at 0.0001 M and pH 8 after 10 mins by Ellman's method relative to control.
For test [4] the target is unchanged. Description: Reactivation of sarin-inhibited electric eel AChE activity after 40 mins by Ellman's method relative to control. The arrangement: scale not given: the % may be the effect or the level left.
Test [5] shares this target. Description: Reactivation of diisopropyl phosphorofluoridate-inhibited electric eel AChE activity at 0.001 M and pH 8 after 10 mins by Ellman's method relative to control. More on the design: scale not given: the % may be the effect or the level left.
Test [6] shares this target. The experiment in a line: Reactivation of diisopropyl phosphorofluoridate-inhibited electric eel AChE activity after 40 mins by Ellman's method relative to control. The arrangement: scale not given: the % may be the effect or the level left.
Test [7] shares this target. The experiment in a line: Reactivation of VX-inhibited electric eel AChE activity at 0.0001 M and pH 8 after 10 mins by Ellman's method relative to control.
For test [8] the target is unchanged. The experiment in a line: Reactivation of diisopropyl phosphorofluoridate-inhibited electric eel AChE activity at 0.0001 M and pH 8 after 10 mins by Ellman's method relative to control.
Test [9] has the same target. Description: Reactivation of VX-inhibited electric eel AChE activity after 30 mins by Ellman's method relative to control. More on the design: scale not given: the % may be the effect or the level left.

As for `NC(=O)c1ccc[n+](Cc2ccc(C[n+]3cccc(/C=N/O)c3)cc2)c1`, the outcome in test [1] was Active.

For `NC(=O)c1cc[n+](Cc2cccc(C[n+]3ccccc3/C=N/O)c2)cc1`, the Activity in test [2] was 45%; in test [4] it was 73%; in test [5] it was 48%; in test [6], 41%. Moreover, the outcome in test [3] and in test [1] was Active.

For `NC(=O)c1ccc[n+](Cc2cccc(C[n+]3cccc(/C=N/O)c3)c2)c1`, in [7], the outcome was Active.

`NC(=O)c1ccc[n+](Cc2ccc(C[n+]3ccccc3/C=N/O)cc2)c1`: the Activity amounted to 47% in test [2], 75% in test [4], 54% in test [5] and 56% in test [6].

For `NC(=O)c1ccc[n+](Cc2cccc(C[n+]3ccccc3/C=N/O)c2)c1`, the Activity in [2] came to 48%; in test [4], 83%; in test [5], 54%; in test [6] it was 81%. Also, the outcome in [1] and in [8] was Active.

Regarding `NC(=O)c1cc[n+](Cc2cccc(C[n+]3cccc(/C=N/O)c3)c2)cc1`, the Activity is 45% in test [9] and 40% in test [1].

Consider `NC(=O)c1cc[n+](Cc2ccc(C[n+]3cccc(/C=N/O)c3)cc2)cc1`, for which, in test [7], the result was Active. This molecule also registered an Activity in test [1] of 40%.
